The target of assay [1] is Trypsin. Nature of the assay: display-phage binding to protease target; trypsin, two washes.
The target of assay [2] is human plasma Kallikrein (Calbiochem, San Diego, Calif., # 420302) (human) (UniProt P03952). Kind of assay: display-phage binding to kallikrein beads; fraction bound relative to parental.
In assay [3] the target is Trypsin. Kind of assay: display-phage binding to protease target.
Assay [4] deals with human plasma Kallikrein (Calbiochem, San Diego, Calif., # 420302) (human) (UniProt P03952). Nature of the assay: display-phage binding to protease target.
A further assay has as its target Thrombin. Nature of the assay: display-phage binding to protease target.
A further assay has as its target Plasmin. Nature of the assay: display-phage binding to protease target.
For assay [5], the target named is human plasma Kallikrein (Calbiochem, San Diego, Calif., # 420302) (human) (UniProt P03952). Kind of assay: display-phage binding to kallikrein beads; pfu eluted / input (10^10 pfu).

With “bovine pancreatic trypsin inhibitor (BPTI) (from UniProt P00974 36-93)”, the relative binding (BPTI relative to LACI) (fold relative to LACI phage display) in the assay with Trypsin [1] turned out to be 0.8; with Trypsin [3] it was 0.3; in assay [4], 1.7; in the assay with Thrombin it was 1.1; with Plasmin it was 88. Also, the Relative Binding (fold relative to LACI(K1) display-phage) in assay [2] worked out at 6. This substance came in with a Fraction Bound (fraction of input pfu) in assay [5] of 2.5e-06.

The values above are taken from US20060264603A1.
